From BindingDB's records for 18337104

By UniProt entry, the sequences of proteins in these tests, tags left out. Where a name states a change or a piece, a line headed by the entry shows the natural chain unless it says otherwise.
UniProt P41144: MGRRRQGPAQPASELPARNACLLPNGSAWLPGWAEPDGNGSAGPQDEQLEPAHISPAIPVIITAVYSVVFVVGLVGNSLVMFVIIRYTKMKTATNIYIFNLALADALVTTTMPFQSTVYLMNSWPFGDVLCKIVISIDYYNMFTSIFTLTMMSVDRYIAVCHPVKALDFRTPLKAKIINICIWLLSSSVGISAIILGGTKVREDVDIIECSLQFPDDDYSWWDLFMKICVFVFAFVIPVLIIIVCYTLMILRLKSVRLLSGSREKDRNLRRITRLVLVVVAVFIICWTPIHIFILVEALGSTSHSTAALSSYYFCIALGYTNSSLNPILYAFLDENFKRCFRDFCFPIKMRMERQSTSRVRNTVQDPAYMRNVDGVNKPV

Target: Kappa-type opioid receptor (Cavia porcellus, UniProt P41144)
Assay: Displacement of [3H]U69593 from kappa opioid receptor in guinea pig cerebellum

**Q.** With `CN(C(=O)Cc1ccc(Cl)c(Cl)c1)[C@@H]1CCCC[C@H]1N1CCCC1` as the compound, how does the IC50 read?
**A.** The IC50 was 1.14 nM.
